Data as given in patent US9034866B2 (Genentech, Inc., priority 2012, dated 2015).

Protein sequences, listed by entry. Tags and fused reporters are not part of them. Lines headed by an entry give the natural chain unless they say otherwise; changes in a name come on top.
UniProt Q99558: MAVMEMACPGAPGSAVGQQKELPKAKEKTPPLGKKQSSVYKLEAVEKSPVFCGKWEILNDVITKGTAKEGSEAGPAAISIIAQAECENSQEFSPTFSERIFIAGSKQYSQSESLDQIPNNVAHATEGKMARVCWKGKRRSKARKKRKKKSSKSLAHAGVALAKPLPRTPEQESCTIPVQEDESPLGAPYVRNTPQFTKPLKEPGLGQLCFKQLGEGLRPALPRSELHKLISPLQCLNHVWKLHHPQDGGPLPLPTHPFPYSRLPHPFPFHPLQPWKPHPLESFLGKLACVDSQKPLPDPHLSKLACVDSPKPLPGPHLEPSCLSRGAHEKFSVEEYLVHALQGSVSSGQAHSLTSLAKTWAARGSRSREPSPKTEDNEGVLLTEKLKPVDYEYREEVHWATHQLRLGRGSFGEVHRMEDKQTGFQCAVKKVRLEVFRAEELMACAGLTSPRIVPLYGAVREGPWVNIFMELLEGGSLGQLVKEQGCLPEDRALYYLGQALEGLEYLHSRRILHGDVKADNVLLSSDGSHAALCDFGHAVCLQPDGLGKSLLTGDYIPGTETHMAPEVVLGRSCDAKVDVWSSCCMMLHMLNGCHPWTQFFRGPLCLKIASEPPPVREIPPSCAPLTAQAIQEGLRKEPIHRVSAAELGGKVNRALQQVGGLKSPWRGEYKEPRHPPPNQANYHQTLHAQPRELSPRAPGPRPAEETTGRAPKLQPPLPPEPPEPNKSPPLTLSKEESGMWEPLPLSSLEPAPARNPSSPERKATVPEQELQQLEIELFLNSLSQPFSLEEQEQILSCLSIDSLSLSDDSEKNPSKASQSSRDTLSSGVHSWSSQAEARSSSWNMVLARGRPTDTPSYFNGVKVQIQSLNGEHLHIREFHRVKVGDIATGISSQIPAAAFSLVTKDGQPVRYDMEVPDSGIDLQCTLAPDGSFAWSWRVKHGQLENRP

Molecular target: nuclear factor-kappa B (NF-kB)-inducing kinase (NIK) (Homo sapiens (Human), UniProt Q99558)
Assay: NIK Enzyme Inhibition Assay (Transcreener ADP fluorescence polarization)
Type: biochemical
Details: read-out: NIK ADP-FP (Ki uM)
Protocol: NIK Enzyme Inhibition Assay: The ability of the nuclear factor-kappa B (NF-kB)-inducing kinase (NIK) to catalyze the hydrolysis of adenosine-5′-triphosphate (ATP) was monitored using the Transcreener ADP (adenosine-5′-diphosphate) assay (BellBrook Labs). Purified NIK (0.2-1 nM) derived from a baculovirus-infected insect cell expression system was incubated with test compounds for 1-3.5 hours in 50 mM 2-[4-(2-hydroxyethyl)piperazin-1-yl]ethanesulfonic acid buffer (pH 7.2) containing 10 mM MgCl2, 2 mM dithiothreitol, 10 uM ATP, 0.01% Triton X-100, 0.1% gamma-globulins from bovine blood, 1% dimethylsulfoxide (DMSO), 12 ug/mL ADP antibody and 4 nM ADP-AlexaFluor® 633 tracer. Reactions were quenched by the addition of 20 mM 2,2′,2″,2′″-(ethane-1,2-diyldinitrilo)tetraacetic acid and 0.01% Brij 35. The tracer bound to the antibody was displaced by the ADP generated during the NIK reaction, which causes a decrease in fluorescence polarization that was measured by laser excitation at 633 nm with a Fluorescence Correlation Spectroscopy Plus reader (Evotec AG).

[1] = purified NIK 0.2-1 nM, 10 uM ATP, Morrison's quadratic equation

`CC(C)(O)C#Cc1cc2c(cc1F)C1CC(C1)n1c-2nc(C(N)=O)c1CNC(=O)C1CC1` (racemic) gave a Ki [1] of 0.0021 µM.
In the case of `CNC(=O)c1c(C(N)=O)nc2n1C1CC(C1)c1ccc(C#CC(C)(C)O)cc1-2` (racemic), the Ki [1] is reported as 0.00012 µM.
`CNC(=O)c1c(C(N)=O)nc2n1C1CC(C1)c1ccc(C#CC3(O)CCCC3)cc1-2` (racemic) gave a Ki [1] of 0.00107 µM.
`CN1CCC[C@@](O)(C#Cc2ccc3c(c2)-c2nc(C(N)=O)sc2C(F)(F)CO3)C1=O` (racemic) showed a Ki [1] of 0.0017 µM.
Molecule `CC(O)(C#Cc1cc2c(cc1F)OCCn1cc(C(N)=O)nc1-2)CO` (racemic) [Example 57, (±)-9-[4-(3-Cyano-azetidin-1-yl)-3-hydroxy-3-methyl-4-oxo-but-1-ynyl]-8-fluoro-4,5-dihydro-6-oxa-1,3a-diaza-benzo[e]azulene-2-carboxylic acid amide] has a Ki [1] of 0.049 µM.
For `CC(O)(C#Cc1ccc2c(c1)-c1nc(C(N)=O)cn1C1CC2C1)c1ncccn1` (racemic) [Example 202, (±)-9-fluoro-10-(3-hydroxy-3-(1H-1,2,4-triazol-3-yl)but-1-yn-1-yl)-5,6-dihydrobenzo[f]imidazo[1,2-d][1,4]oxazepine-2-carboxamide], the Ki [1] was 0.0083 µM.
Work on `CC(O)(C#Cc1cc2c(cc1F)C1CC(C1)n1cc(C(N)=O)nc1-2)c1ncccn1` (racemic) [Example 203, (±)-9-fluoro-10-(3-hydroxy-3-(1-methyl-1H-imidazol-2-yl)but-1-yn-1-yl)-5,6-dihydrobenzo[f]imidazo[1,2-d][1,4]oxazepine-2-carboxamide] yielded a Ki [1] of 0.0069 µM.
`CC(O)(C#Cc1cc2c(cc1F)OCCn1c-2nc(C(N)=O)c1-c1nc(C2CC2)n[nH]1)CO` (racemic) [Example 208, (±)-10-(3,4-dihydroxy-3-methylbut-1-yn-1-yl)-9-fluoro-5,6-dihydrobenzo[f]imidazo[1,2-d][1,4]oxazepine-2-carboxamide] was tested, and the Ki [1] was 0.0026 µM.
In the case of `Cc1nc([C@](C)(O)C#Cc2ccc3c(c2)-n2nc(C(N)=O)cc2[C@@H](C)CO3)no1` (racemic) [Example 499, (±)-methyl 10-bromo-9-fluoro-3-(hydroxy(1-methyl-1H-pyrazol-5-yl)methyl)-5,6-dihydrobenzo[f]imidazo[1,2-d][1,4]oxazepine-2-carboxylate], the Ki [1] is reported as 0.056 µM and 0.014 µM.
`Cc1nc([C@](C)(O)C#Cc2ccc3c(c2)-n2nc(C(N)=O)cc2[C@H](C)CO3)no1` (racemic) [Example 504, (±)-Methyl 10-bromo-3-((3,5-difluorophenyl)(hydroxy)methyl)-9-fluoro-5,6-dihydrobenzo[f]imidazo[1,2-d][1,4]oxazepine-2-carboxylate] was tested, and the Ki [1] was 0.056 µM and 0.014 µM.
With `CN1CC[C@@](O)(C#Cc2ccc3c(c2)-n2nc(C(N)=O)c(C(F)(F)F)c2[C@H](F)CO3)C1=O` (racemic) [Example 539, (±)-10-bromo-2,3-diiodo-6-methyl-5,6-dihydrobenzo[f]imidazo[1,2-d][1,4]oxazepine] the Ki [1] was 0.0031 µM and 0.0023 µM.
`C[C@H]1COc2ccc(C#C[C@]3(O)CCN(C)C3=O)cc2-n2nc(C(N)=O)c(C(F)(F)F)c21` (racemic) [Example 564, (±)-10-bromo-9-fluoro-3-(hydroxy(1-methyl-1H-imidazol-2-yl)methyl)-6,7-dihydro-5H-5,7-methanobenzo[c]imidazo azepine-2-carboxamide] was tested, and the Ki [1] was 0.00039 µM and 0.0016 µM.
For `CC(C)NC(=O)[C@H]1Cn2cc(C(N)=O)nc2-c2cc(C#CC3(O)CCCC3)ccc2O1` [Example 595, (R)-10-((1-hydroxycyclopentyl)ethynyl)-N6-isopropyl-5,6-dihydrobenzo[f]imi-dazo[1,2-d][1,4]oxazepine-2,6-dicarboxamide], the Ki was > 1.2 µM and 1.3 µM.

“And” between values parts separate entries of the source, which are not always exact repeats. Equal entries are not always repeated. Where two headings read alike, the source gives them in different places.
